Reference: patent US7973145B2, “Sulfonated sugar compounds, pharmaceutical compositions which contain the same, and methods of treating tumors with the same” (priority 2007, dated 2011)

Assay: Solubility measurement in injectable water
Format: physicochemical
Conditions: 1 g in 5 ml of injectable water, strongly shaken at 25° C.

## 3-O-(6-sulfo-α-D-quinovopyranosyl)-1-O-stearoyl-propane-1,3-diol calcium salt [αSQAP C18:0 calcium salt]
  dissolution in injectable water: immediately dissolved
